This note sets out measurements from publication PMC5429603, “Discovery and characterization of verinurad, a potent and specific inhibitor of URAT1 for the treatment of hyperuricemia and gout” (Scientific Reports, 2017).

Amino acid sequences for entries named in this document (tags omitted).
UniProt Q96S37, whole entry: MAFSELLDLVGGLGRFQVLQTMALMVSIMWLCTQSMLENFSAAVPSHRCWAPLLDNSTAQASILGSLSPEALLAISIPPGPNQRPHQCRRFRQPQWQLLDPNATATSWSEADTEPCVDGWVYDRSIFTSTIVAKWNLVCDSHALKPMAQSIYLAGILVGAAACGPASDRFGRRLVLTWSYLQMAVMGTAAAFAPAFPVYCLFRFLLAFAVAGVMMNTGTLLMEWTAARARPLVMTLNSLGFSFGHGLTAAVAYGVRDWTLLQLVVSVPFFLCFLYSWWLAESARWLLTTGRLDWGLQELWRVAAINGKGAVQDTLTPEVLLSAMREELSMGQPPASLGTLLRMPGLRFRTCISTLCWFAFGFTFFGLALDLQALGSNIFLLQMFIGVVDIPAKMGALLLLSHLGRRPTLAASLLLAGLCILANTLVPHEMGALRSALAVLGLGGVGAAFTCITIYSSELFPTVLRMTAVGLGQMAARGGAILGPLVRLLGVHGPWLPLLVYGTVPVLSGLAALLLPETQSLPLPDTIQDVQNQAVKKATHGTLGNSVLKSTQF

This test concerns the target human URAT1 (Homo sapiens, UniProt Q96S37). The experiment in a line: URAT1 binding assay with 3H-verinurad, human URAT1 membranes. The note with it: untreated URAT1 samples; tested as the radiolabelled form.

Turning to `CC(C)(Sc1ccncc1-c1ccc(C#N)c2ccccc12)C(=O)O` [Verinurad, 2-((3-(4-cyanonaphthalen-1-yl)pyrindin-4-yl)thio)-2-methylpropanoic acid], the “B max of 3H-verinurad binding” value turned out to be 53 fmol/µg protein.
